Results as given in US20120264675A1.
“And” between values parts separate entries of the source, which are not always exact repeats. Equal values may be shown once.

The chains behind the UniProt entries cited, without tags or fusion partners. Where a name states a change or a piece, a line headed by the entry shows the natural chain unless it says otherwise.
UniProt P69332: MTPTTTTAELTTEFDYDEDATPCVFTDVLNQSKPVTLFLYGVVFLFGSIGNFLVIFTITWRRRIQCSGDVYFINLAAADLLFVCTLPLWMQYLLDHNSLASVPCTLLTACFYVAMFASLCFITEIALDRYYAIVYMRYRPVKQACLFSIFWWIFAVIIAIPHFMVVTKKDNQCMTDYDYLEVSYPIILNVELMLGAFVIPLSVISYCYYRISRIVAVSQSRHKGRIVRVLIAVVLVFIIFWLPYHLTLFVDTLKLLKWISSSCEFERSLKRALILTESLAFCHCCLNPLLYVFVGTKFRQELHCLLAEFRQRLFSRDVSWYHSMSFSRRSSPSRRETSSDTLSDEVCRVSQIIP

Molecular target: HCMV US28 (human cytomegalovirus (HCMV)) (UniProt P69332)
Test: cell-based or functional assay

“recombinant human CCL5 (rhCCL5, catalog #278-RN/CF, R&D) (from UniProt P13501 24-91) (ligand)” was tested, and the Matrigel invasion of US28-transduced glioma cells and primary GBM cultures was 50% and 50 to 60%.
